# Results published in US20120021068A1, “COMPOSITIONS FOR DECONTAMINATION” (published 2012).
# Assays:
# [1] = Active chlorine concentration by standard titration; details: 1.5% (weight/volume) added to gel from 3M CaCl2 / 6M ZnCl2 solution and 3% hypochlorite bleach, 1:19
# [2] = Determination of gel formation and thixotropy by visual inspection; details: gel from 3M CaCl2 / 6M ZnCl2 solution and 3% hypochlorite bleach, 1:19
# [3] = pH of bleach and gels; details: immediately upon addition
Substance,effect of added solid hypochlorite salt on active chlorine concentration of the gel [1],effect of reactivation with solid hypochlorite salt on gel consistency [2],pH of 3% hypochlorite bleach after addition [3]
Ca(OCl)2,elevated the active chlorine concentrations,did not noticeably affect the consistency of the gel,–
Zinc chloride,–,–,approximately 5
